Laboratory results published in patent US20020082273A1, “Agents for use in the treatment of alzheimer's disease” (priority 1998, published 2002).

Test system: SDS-resistant Aβ polymers extracted from AD brains
Conditions: 1 mM or 5 mM chelator

Substance: bathocuproinedisulfonic acid [BC]
- amount of monomer Aβ: significantly increased the amount of monomer Aβ
